From article PMC3390373

Biological target: FLAG-tagged C-terminally truncated RPS0A (residues 1–197) (S. cerevisiae) (UniProt P32905)
Assay: co-IP; WCE of H2880 wt cells overexpressing wt or C-terminally truncated RPS0A-FLAG; anti-FLAG M2 affinity matrix, 60 min, 4°C, buffer A200T (200 mM KCl, 20 mM Tris pH 8, 5 mM Mg acetate, 1 mM DTT, 0.2% Triton X-100); whole 40S subunits with their associated eIFs are recovered through the tagged RPS0A; Western blot, normalised to ASC1 (Figure 5B)

- percent reduction of the co-purified amount against wt RPS0A-FLAG: 50%
Substance: eIF3 (yeast multisubunit eukaryotic initiation factor 3) (from UniProt P38249 1-964; P06103 1-763; P32497 1-812; P40217 1-347; Q04067 1-274; Q05775 1-265) (complex)
